Reference: PubChem BioAssay (NCI)
Where “and” joins values, the source holds several entries; their conditions need not be identical. Equal entries are not always repeated. The list shows a part of the results, in another mix than the full data. Some tests of the compounds listed are not included; inactive here does not mean inactive elsewhere.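 A percent growth of 40 corresponds to 60% growth inhibition; 0 means no net growth; -100 means all cells died. Active threshold: below 10.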 Calls of active or inactive are those of the source.

Columns and labels:
Assay in all cases: NCI-60 one-dose screen, 48 h (100 = growth as untreated, 0 = no growth, -100 = all killed)
Conditions in all cases: 10 µM
[1] = tested on: HCT-15 colon
[2] = tested on: HT29 colon
[3] = tested on: SNB-75 CNS
[4] = tested on: SNB-19 CNS
[5] = tested on: U251 CNS
[6] = tested on: PC-3 prostate
[7] = tested on: SK-MEL-5 melanoma
[8] = tested on: UACC-62 melanoma
[9] = tested on: LOX IMVI melanoma
[10] = tested on: SK-MEL-28 melanoma

Measured: growth

Fc1cccc(CN(CCCl)CCCl)c1
inactive: [1] 95.6% | [2] 92.1% | [3] 81.1% | [4] 105% | [5] 92.1% | [6] 80.5% | [7] 102% | [8] 96% | [9] 84.4% | [10] 99%

CC(=O)CI
inactive: [1] 97.8% | [2] 109% | [3] 88.3% | [4] 124% | [5] 99.3% | [6] 101% | [7] 105% | [8] 101% | [9] 94% | [10] 105%

N#CC(C#N)=Cc1ccccc1Cl
inactive: [1] 107% | [2] 118% | [3] 97.3% | [4] 103% | [5] 103% | [6] 104% | [7] 102% | [8] 95.6% | [9] 87.8% | [10] 113%

CC(C)(C)N(CCCl)CCCl
inactive: [1] 92.5% | [2] 86.3% | [3] 67.3% | [4] 101% | [5] 89.9% | [6] 98.3% | [7] 104% | [8] 96.6% | [9] 102% | [10] 93.6%

ClCCN(CCCl)C1c2ccccc2-c2ccccc21
inactive: [1] 100% | [2] 64.1% | [3] 80.6% | [4] 96.2% | [5] 81.4% | [6] 78.4% | [7] 91% | [8] 83.3% | [9] 85% | [10] 106%

ClCCCCCC(CCl)NCCCl (stereo not drawn)
inactive: [1] 91.8% | [2] 89.7% | [3] 93% | [4] 94.8% | [5] 76.6% | [6] 73.3% | [7] 86.6% | [8] 67.2% | [9] 68.2% | [10] 105%

O=C(OCCN1CCCC1)C(O)(c1ccccc1)c1ccccc1
inactive: [1] 113% | [2] 106% | [3] 95.8% | [4] 99.8% | [6] 93.1% | [7] 107% | [8] 83.1% | [9] 99.9% | [10] 114%

ClCCN(CCCl)Cc1cc(Cl)cc(Cl)c1
inactive: [1] 81% | [2] 67.6% | [3] 66.7% | [4] 84.2% | [5] 59.2% | [6] 56.6% | [7] 94.6% | [8] 62.5% | [9] 55.5% | [10] 87.4%

BrCCN(CCBr)Cc1ccccc1
inactive: [1] 103% | [2] 93.6% | [3] 76.3% | [4] 118% | [5] 106% | [6] 84.5% | [7] 113% | [8] 107% | [9] 107% | [10] 104%

CC[N+](C)(C)Cc1cccc(Cc2ccccc2)c1OC(=O)N(C)C
inactive: [1] 101% | [2] 106% | [3] 108% | [4] 106% | [5] 100% | [6] 98.6% | [7] 102% | [8] 100% | [9] 96.9% | [10] 111%

COc1ccc([N+](=O)[O-])cc1CN(CCCl)CCCl
inactive: [1] 97.2% | [2] 89.4% | [3] 82.5% | [4] 105% | [5] 88.4% | [6] 92.5% | [7] 98.5% | [8] 95.6% | [9] 81.9% | [10] 113%

COCc1c(CN(CCCl)CCCl)cnc(C)c1O
inactive: [1] 116% | [2] 97.4% | [3] 90.5% | [4] 100% | [5] 96.9% | [6] 82.1% | [7] 95.5% | [8] 86.5% | [9] 83.6% | [10] 111%

CN(C)CCOC(=O)C(O)(c1ccccc1)c1ccccc1
inactive: [1] 92.8% | [2] 118% | [3] 93.1% | [4] 112% | [5] 103% | [6] 106% | [7] 108% | [8] 106% | [9] 110% | [10] 112%

Cc1cc2nc(CN(CCCl)CCCl)[nH]c2cc1C
inactive: [1] 98% | [2] 79.1% | [3] 64.5% | [4] 87.3% | [5] 77.4% | [6] 90.4% | [7] 92.4% | [8] 67% | [9] 61.1% | [10] 113%

ClCCN(CCCl)Cc1ccc(Cl)c(Cl)c1
inactive: [1] 97.4% | [2] 100% | [3] 97.9% | [4] 104% | [5] 85.1% | [6] 93.8% | [7] 100% | [8] 105% | [9] 95.5% | [10] 109%

CN(CCBr)CCBr
inactive: [1] 92.2% | [2] 84% | [3] 82% | [4] 102% | [5] 90.8% | [6] 79.4% | [7] 100% | [8] 88% | [9] 87.1% | [10] 99.7%

CCOc1ccc([N+](=O)[O-])cc1CN(CCCl)CCCl
inactive: [1] 100% | [2] 89.3% | [3] 94.7% | [4] 100% | [5] 95.6% | [6] 89.4% | [7] 100% | [8] 92.7% | [9] 83.4% | [10] 106%

CCNCCCl
inactive: [1] 98.5% | [2] 104% | [3] 108% | [4] 107% | [5] 103% | [6] 109% | [7] 104% | [8] 102% | [9] 99% | [10] 106%

N#CC(C#N)=Cc1cccc(Br)c1
inactive: [1] 112% | [2] 112% | [4] 102% | [5] 96.6% | [6] 93.8% | [7] 98.9% | [8] 101% | [9] 96.2% | [10] 110%

ClCCN(CCCl)C1CCCCC1
inactive: [1] 95.6% | [2] 104% | [3] 94.7% | [4] 102% | [5] 101% | [6] 96.9% | [7] 96.7% | [8] 91.1% | [9] 93.9% | [10] 97.2%

CCCN(CCCl)CCCl
inactive: [1] 101% | [2] 110% | [3] 71.5% | [4] 111% | [5] 103% | [6] 95.3% | [7] 105% | [8] 95.7% | [9] 101% | [10] 104%

COc1ccc(N=C=S)cc1CN(CCCl)CCCl
inactive: [1] 76.4% | [2] 47.4% | [3] 63.3% | [4] 72.8% | [5] 54.3% | [6] 59.2% | [7] 86.3% | [8] 35.6% | [9] 34.2% | [10] 101%

ClCCN(CCCl)Cc1ccsc1Br
inactive: [1] 90.5% | [2] 87.1% | [3] 80.6% | [4] 98.9% | [5] 69.6% | [6] 69.8% | [7] 96.6% | [8] 83.5% | [9] 66.5% | [10] 93.7%

N#CC(C#N)=Cc1ccc(Br)cc1
inactive: [1] 108% and 103% | [2] 106% and 105% | [3] 113% | [4] 107% and 97.9% | [5] 99.5% and 100% | [6] 98.9% and 100% | [7] 99.2% and 97.9% | [8] 99.5% and 94.6% | [9] 98.2% and 96.1% | [10] 112%
